Measured values from publication PMC10364322, “Evaluation of chronic drug-induced electrophysiological and cytotoxic effects using human-induced pluripotent stem cell-derived cardiomyocytes (hiPSC-CMs)” (Frontiers in Pharmacology, 2023).

Tested on: hiPSC-CMs (iCell-Cardiomyocytes^2)
Experimental: Cells were seeded according to the instructions of the cell provider, in fibronectin-coated 48-well MEA plates (Axion Cytoview Plates, M768-tMEA-48B) at a density suited to form a monolayer (i.e., 50 K/well) and maintained in culture in a stage incubator (37°C, 5% CO2).
At least 4 h before the beginning of the baseline measurements, a full medium exchange was performed (to a final volume of 400 µL per well). Neat compounds were dissolved in 100% DMSO at a stock concentration 1000-fold the highest target concentration. […] Afterwards, these stock solutions were diluted with Maintenance medium (CDi), to 10-fold the intended concentration. The final DMSO concentration in test solutions and vehicle control was 0.1%.
Spontaneous electrical activity was recorded in hiPSC-CMs monolayers as field potentials using the Maestro Pro MEA instrument (Axion Biosystems, Atlanta, GA, United States), which allows the maintenance of accurate temperature and CO2 levels (37°C, 5% CO2). After the plate was placed in the Maestro Pro and allowed to equilibrate for about 10 min, baseline acquisition of field potential and impedance signals was initiated and lasted for 5 min each. […] As impedance measures resistance of an applied alternating current through the hiPSC-CMs monolayer, a reduction in the attachment of hiPSC-CMs to the bottom of the well due to cell death or changes in the monolayer morphology, causes a drop in the impedance signal.
The potential presence of various arrhythmic events was evaluated and noted during the data analysis.
After the acquisition of all timepoint measurements, raw data were loaded into the data analysis software Axion Cardiac Analysis Tool (V.3.2.3). […] A.csv file containing information on the FP parameters per well, per time point, was then generated and used as input to the in-house data management system (SPEcII v.3.4, Unlimit-IT, Geel, Belgium), where descriptive statistics were calculated. Summary values at different time points after compound addition are expressed as percent change from baseline and shown as mean ± standard deviation (SD).
The nonparametric Wilcoxon-Mann Whitney Test was used to compare the percent change from the baseline (Δ%) value between the group treated with the compound at a given concentration and the group treated with the DMSO at each matching time points. A two-sided test at 5% significance level was considered. […] To assess the physiological relevance of changes, a tolerance interval of DMSO experiments was calculated at each time point, for each parameter. […] TIs indicate an interval where, with a certain confidence level (1- α = 0.95), a specified proportion (p = 0.80) of percent change for DMSO data falls. The lower and upper limits based on the TI values were used as cut-offs for the interpretation of the changes. For the cytotoxicity assays, measurements of fluorescence (after background fluorescence subtraction) from wells treated with the compounds were normalized by the average value of vehicle experiments (DMSO 0.1%) to obtain a DMSO-corrected, delta/delta percent change. Experiments from each condition, as delta/delta percent, were averaged and expressed as mean ± SD. Statistical analysis was performed using a non-parametric test (Kruskal-Wallis) and each treatment condition was compared to the relative DMSO 0.1%. Differences were considered statistically significant when the p-value was smaller than 0.05.

CCN(CC)CCNC(=O)c1c(C)[nH]c(/C=C2\C(=O)Nc3ccc(F)cc32)c1C [Sunitinib]
Beating below threshold, number of observations/total well numbers (0.03 µM, 2h): 0/5
Cessation of beating, number of observations/total well numbers (0.03 µM, 2h): 0/5
EAD, number of observations/total well numbers (0.03 µM, 2h): 0/5
Flat T-wave-like, number of observations/total well numbers (0.03 µM, 2h): 0/5
Beating below threshold, number of observations/total well numbers (0.03 µM, 24h): 0/5
Cessation of beating, number of observations/total well numbers (0.03 µM, 24h): 0/5
EAD, number of observations/total well numbers (0.03 µM, 24h): 0/5
Flat T-wave-like, number of observations/total well numbers (0.03 µM, 24h): 0/5
Beating below threshold, number of observations/total well numbers (0.03 µM, 48h): 0/5
Cessation of beating, number of observations/total well numbers (0.03 µM, 48h): 0/5
EAD, number of observations/total well numbers (0.03 µM, 48h): 0/5
Flat T-wave-like, number of observations/total well numbers (0.03 µM, 48h): 0/5
Beating below threshold, number of observations/total well numbers (0.03 µM, 72h): 0/5
Cessation of beating, number of observations/total well numbers (0.03 µM, 72h): 0/5
EAD, number of observations/total well numbers (0.03 µM, 72h): 0/5
Flat T-wave-like, number of observations/total well numbers (0.03 µM, 72h): 0/5
Beating below threshold, number of observations/total well numbers (0.03 µM, 96h): 0/5
Cessation of beating, number of observations/total well numbers (0.03 µM, 96h): 0/5
EAD, number of observations/total well numbers (0.03 µM, 96h): 0/5
Flat T-wave-like, number of observations/total well numbers (0.03 µM, 96h): 0/5
Beating below threshold, number of observations/total well numbers (0.1 µM, 2h): 0/5
Cessation of beating, number of observations/total well numbers (0.1 µM, 2h): 0/5
EAD, number of observations/total well numbers (0.1 µM, 2h): 0/5
Flat T-wave-like, number of observations/total well numbers (0.1 µM, 2h): 0/5
Beating below threshold, number of observations/total well numbers (0.1 µM, 24h): 0/5
Cessation of beating, number of observations/total well numbers (0.1 µM, 24h): 0/5
EAD, number of observations/total well numbers (0.1 µM, 24h): 0/5
Flat T-wave-like, number of observations/total well numbers (0.1 µM, 24h): 0/5
Beating below threshold, number of observations/total well numbers (0.1 µM, 48h): 0/5
Cessation of beating, number of observations/total well numbers (0.1 µM, 48h): 0/5
EAD, number of observations/total well numbers (0.1 µM, 48h): 0/5
Flat T-wave-like, number of observations/total well numbers (0.1 µM, 48h): 0/5
Beating below threshold, number of observations/total well numbers (0.1 µM, 72h): 0/5
Cessation of beating, number of observations/total well numbers (0.1 µM, 72h): 0/5
EAD, number of observations/total well numbers (0.1 µM, 72h): 0/5
Flat T-wave-like, number of observations/total well numbers (0.1 µM, 72h): 0/5
Beating below threshold, number of observations/total well numbers (0.1 µM, 96h): 0/5
Cessation of beating, number of observations/total well numbers (0.1 µM, 96h): 0/5
EAD, number of observations/total well numbers (0.1 µM, 96h): 0/5
Flat T-wave-like, number of observations/total well numbers (0.1 µM, 96h): 0/5
Beating below threshold, number of observations/total well numbers (0.3 µM, 2h): 0/5
Cessation of beating, number of observations/total well numbers (0.3 µM, 2h): 0/5
EAD, number of observations/total well numbers (0.3 µM, 2h): 0/5
Flat T-wave-like, number of observations/total well numbers (0.3 µM, 2h): 0/5
Beating below threshold, number of observations/total well numbers (0.3 µM, 24h): 0/5
Cessation of beating, number of observations/total well numbers (0.3 µM, 24h): 0/5
EAD, number of observations/total well numbers (0.3 µM, 24h): 2/5
Flat T-wave-like, number of observations/total well numbers (0.3 µM, 24h): 0/5
Beating below threshold, number of observations/total well numbers (0.3 µM, 48h): 0/5
Cessation of beating, number of observations/total well numbers (0.3 µM, 48h): 0/5
EAD, number of observations/total well numbers (0.3 µM, 48h): 3/5
Flat T-wave-like, number of observations/total well numbers (0.3 µM, 48h): 0/5
Beating below threshold, number of observations/total well numbers (0.3 µM, 72h): 0/5
Cessation of beating, number of observations/total well numbers (0.3 µM, 72h): 0/5
EAD, number of observations/total well numbers (0.3 µM, 72h): 0/5
Flat T-wave-like, number of observations/total well numbers (0.3 µM, 72h): 0/5
Beating below threshold, number of observations/total well numbers (0.3 µM, 96h): 0/5
Cessation of beating, number of observations/total well numbers (0.3 µM, 96h): 0/5
EAD, number of observations/total well numbers (0.3 µM, 96h): 1/5
Flat T-wave-like, number of observations/total well numbers (0.3 µM, 96h): 0/5
Beating below threshold, number of observations/total well numbers (1 µM, 2h): 0/5
Cessation of beating, number of observations/total well numbers (1 µM, 2h): 0/5
EAD, number of observations/total well numbers (1 µM, 2h): 0/5
Flat T-wave-like, number of observations/total well numbers (1 µM, 2h): 2/5
Beating below threshold, number of observations/total well numbers (1 µM, 24h): 0/5
Cessation of beating, number of observations/total well numbers (1 µM, 24h): 0/5
EAD, number of observations/total well numbers (1 µM, 24h): 0/5
Flat T-wave-like, number of observations/total well numbers (1 µM, 24h): 5/5
Beating below threshold, number of observations/total well numbers (1 µM, 48h): 0/5
Cessation of beating, number of observations/total well numbers (1 µM, 48h): 3/5
EAD, number of observations/total well numbers (1 µM, 48h): 0/5
Flat T-wave-like, number of observations/total well numbers (1 µM, 48h): 2/5
Beating below threshold, number of observations/total well numbers (1 µM, 72h): 0/5
Cessation of beating, number of observations/total well numbers (1 µM, 72h): 4/5
EAD, number of observations/total well numbers (1 µM, 72h): 0/5
Flat T-wave-like, number of observations/total well numbers (1 µM, 72h): 1/5
Beating below threshold, number of observations/total well numbers (1 µM, 96h): 0/5
Cessation of beating, number of observations/total well numbers (1 µM, 96h): 5/5
EAD, number of observations/total well numbers (1 µM, 96h): 0/5
Flat T-wave-like, number of observations/total well numbers (1 µM, 96h): 0/5

Read-outs that look alike come from different tables or passages of the source.
